Assay results: BindingDB's records for doi:10.1021/jm040794i (2005)

By UniProt entry, the sequences of proteins in these tests, tags left out. Where a name states a change or a piece, a line headed by the entry shows the natural chain unless it says otherwise.
UniProt P35346: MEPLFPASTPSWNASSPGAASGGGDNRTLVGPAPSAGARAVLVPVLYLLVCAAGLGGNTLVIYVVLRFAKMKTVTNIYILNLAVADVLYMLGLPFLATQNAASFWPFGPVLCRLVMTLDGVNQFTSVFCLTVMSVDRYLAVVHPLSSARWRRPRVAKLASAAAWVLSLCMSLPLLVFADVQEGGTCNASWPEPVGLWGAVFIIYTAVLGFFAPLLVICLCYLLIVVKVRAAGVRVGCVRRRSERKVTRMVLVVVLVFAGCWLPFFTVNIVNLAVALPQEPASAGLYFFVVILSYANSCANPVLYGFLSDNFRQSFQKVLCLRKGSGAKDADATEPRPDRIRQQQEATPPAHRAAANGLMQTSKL
UniProt P32745: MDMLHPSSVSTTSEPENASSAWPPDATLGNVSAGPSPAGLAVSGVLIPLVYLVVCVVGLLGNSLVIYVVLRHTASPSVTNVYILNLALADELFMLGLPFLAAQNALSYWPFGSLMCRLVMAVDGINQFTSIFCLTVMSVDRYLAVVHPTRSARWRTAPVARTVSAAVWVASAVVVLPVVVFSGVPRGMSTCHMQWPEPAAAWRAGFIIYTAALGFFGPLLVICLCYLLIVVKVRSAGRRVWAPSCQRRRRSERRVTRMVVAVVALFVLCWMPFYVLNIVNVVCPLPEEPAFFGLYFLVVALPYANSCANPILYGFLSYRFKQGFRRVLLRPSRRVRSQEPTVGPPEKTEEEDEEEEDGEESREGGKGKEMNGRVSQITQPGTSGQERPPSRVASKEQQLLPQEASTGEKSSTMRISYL

Legend:
[1] = biological target: T1, Somatostatin receptor type 5 (Homo sapiens, UniProt P35346); test: In vitro inhibition of [125I][Leu8,D-Trp22,Tyr25] somatostatin 28 binding to human somatostatin receptor type 5 expressed in CHO-K1 cells; (n=3)
[2] = biological target: Somatostatin receptor type 3 (Homo sapiens, UniProt P32745); test: In vitro inhibition of [125I][Leu8,D-Trp22,Tyr25] somatostatin 28 binding to human somatostatin receptor type 3 expressed in CCL39 cells; (n=7)
[3] = biological target: T1, Somatostatin receptor type 5; test: In vitro inhibition of [125I][Leu8,D-Trp22,Tyr25] somatostatin 28 binding to human somatostatin receptor type 5 expressed in CHO-K1 cells; (n=6)

IC50 [1]: 0.114 µM
IC50 [2]: 0.613 µM
IC50 [3]: 0.073 µM
SMILES: C[C@@H](O)[C@@H]1NC(=O)[C@H](CCCCN)NC(=O)[C@@H](Cc2c[nH]c3ccccc23)NC(=O)[C@H](Cc2ccc(O)cc2)NC(=O)[C@@H](NC(=O)[C@@H](Cc2ccccc2)NC(=O)CN2CCN(CC(=O)O)CCN(CC(=O)O)CCN(CC(=O)O)CC2)CSSC[C@@H](C(=O)N[C@H](CO)[C@@H](C)O)NC1=O
